Measurements from US20100190187A1, “Screening Assays for Antagonists and Analyses of Cardiac Hypertrophy” (The Regents of the University of Michigan Office of …, priority 2006, published 2010).
pKd: −log10 of the molar value.

Molecular target: T1, mVDR (Rattus norvegicus, UniProt P13053)
T1 sequence (P13053 1-423): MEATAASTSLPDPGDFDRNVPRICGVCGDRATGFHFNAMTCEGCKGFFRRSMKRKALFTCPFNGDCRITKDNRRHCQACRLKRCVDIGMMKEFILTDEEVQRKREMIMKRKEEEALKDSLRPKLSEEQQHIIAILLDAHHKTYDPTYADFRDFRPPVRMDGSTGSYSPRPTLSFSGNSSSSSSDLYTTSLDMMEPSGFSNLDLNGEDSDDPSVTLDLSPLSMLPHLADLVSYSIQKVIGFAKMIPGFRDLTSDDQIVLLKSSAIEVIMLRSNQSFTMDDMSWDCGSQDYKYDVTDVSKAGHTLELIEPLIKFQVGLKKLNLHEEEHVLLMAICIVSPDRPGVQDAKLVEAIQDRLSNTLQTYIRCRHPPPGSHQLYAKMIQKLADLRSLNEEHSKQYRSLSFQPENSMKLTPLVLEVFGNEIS
Assay: Saturation binding of [3H] 1α,25(OH)2 vitamin D3 to plasma membrane fractions from rat whole heart homogenates
Conditions: plasma membrane fractions (7,700-40,000×g) from rat whole heart homogenates

Substance: [^3H] 1α,25(OH)2 vitamin D3
- Bmax of specific binding to mVDR (Scatchard transformation): 186 fmol/mg
- pKd (read-out: Kd of specific binding to mVDR (Scatchard transformation)): 9.16
